{"source": "patent US9556154B2", "about": "“Pyrrole-substituted indolone derivative, preparation method therefor, composition comprising same and use thereof” (SHIJIAZHUANG YILING PHARMACEUTICAL CO., LTD., priority 2014, dated 2017)", "test_system": "HUVEC", "experiment": "Cytotoxicity to HUVEC (MTS)", "assay_type": "cell-based, Human", "protocol": "Assays for cytotoxicity: the above HUVECs were cultured in an F-12K culture medium containing 10% fetal bovine serum (FBS), 100 U/mL penicillin, 100 µg/mL streptomycin, 30 ug/mL ECGS, and 18 u/mL heparin. The HUVECs growing in the exponential phase were digested with pancreatin, and was adjust to have an appropriate level of cell density by using an F-12K complete medium containing 5% FBS, then 150 μL cells were inoculated into a 96-well plate at 3000 cells/well. 24 hours later, 50 μL of the test compound 4-fold diluted in a complete medium containing 5% FBS was added, and the same volume of a DMSO dilute solution was used as a control. After the cells were further cultured for 72 h, 20 μL MTS and 1 μL PMS were added to each well. 1-2 hours later, OD490 was measured, with OD650 as a reference. A dose-effect curve was drawn using the GraphPad Prism software, and half cytotoxic concentration (CC50) was calculated. The therapeutic index (TI) of the test compound on HUVECs was calculated as TI=CC50/EC50.", "data": [{"smiles": "CCN(CC)CCNC(=O)c1c(C)[nH]c(/C=C2\\C(=O)Nc3ccc(F)cc32)c1C", "note": "[Sunitinib, reference compound]", "values": [{"measurement": "TI = CC50/EC50", "result": 536}]}]}
